In ChEMBL document CHEMBL1149629, “Synthesis and biological activities of isogranulatimide analogues” (Bioorg Med Chem, 2007):

Target: T1, Serine/threonine-protein kinase Chk1 (Homo sapiens) (UniProt O14757)
T1 sequence (whole entry): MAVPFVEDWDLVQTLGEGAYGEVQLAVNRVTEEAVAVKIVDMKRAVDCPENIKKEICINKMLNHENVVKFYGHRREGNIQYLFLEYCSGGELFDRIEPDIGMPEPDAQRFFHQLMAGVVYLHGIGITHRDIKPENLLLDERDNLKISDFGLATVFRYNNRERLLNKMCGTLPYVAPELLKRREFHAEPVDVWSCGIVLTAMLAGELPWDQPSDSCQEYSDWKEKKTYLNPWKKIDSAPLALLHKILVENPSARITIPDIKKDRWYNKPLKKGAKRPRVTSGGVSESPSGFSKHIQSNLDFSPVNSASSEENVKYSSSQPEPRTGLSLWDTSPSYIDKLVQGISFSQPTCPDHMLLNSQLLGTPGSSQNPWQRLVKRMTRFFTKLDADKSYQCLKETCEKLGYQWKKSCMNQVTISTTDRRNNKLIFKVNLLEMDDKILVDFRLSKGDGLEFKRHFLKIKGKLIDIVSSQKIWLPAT
Experiment: Inhibition of human Chk1 at 10 uM
Outline: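 Chk1 from a commercial source or purified as GST–Chk1 from baculovirus-infected Sf9 cells. Assay based on a published method. Percent inhibition determined at 10 µM; IC50 determined for selected compounds.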

inhibition: 89.7%
SMILES: O=C1NC(=O)c2c1c1c3ccccc3[nH]c1n1cncc21 [ISOGRANULATIMIDE]
